Test results reported in patent US12247064B2, “Modified ligand-gated ion channels and methods of use” (Howard Hughes Medical Institute, priority 2017, dated 2025).
Where two headings read alike, the source gives them in different places.

Chains of the proteins cited; added tags and fusions are not shown. A line that says so, or that is headed by a name, gives the form on record, which may keep a tag or linker.
UniProt P36544, with tags, fused parts or gaps Q79G: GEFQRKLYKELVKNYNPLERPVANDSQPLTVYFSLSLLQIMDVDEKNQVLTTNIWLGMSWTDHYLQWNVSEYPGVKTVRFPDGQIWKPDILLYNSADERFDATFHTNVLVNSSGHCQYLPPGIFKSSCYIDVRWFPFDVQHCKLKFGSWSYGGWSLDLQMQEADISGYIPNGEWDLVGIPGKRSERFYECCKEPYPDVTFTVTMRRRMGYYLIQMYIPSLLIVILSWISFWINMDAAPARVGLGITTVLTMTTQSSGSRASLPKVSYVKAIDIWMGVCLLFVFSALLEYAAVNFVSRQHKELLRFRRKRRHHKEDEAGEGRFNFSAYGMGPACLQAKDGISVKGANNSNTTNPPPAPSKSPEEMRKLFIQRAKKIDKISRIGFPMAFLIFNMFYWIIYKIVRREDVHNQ

Columns and labels:
α7^Q79G-GlyR^A298G [1] = target: T1, α7^Q79G-GlyR^A298G (Homo sapiens, UniProt P36544, A298G/Q79G); conditions: read-out: α7^Q79G-GlyR^A298G EC50; HEK cells; Table 3
α7^Q79G-GlyR^A298G [2] = target: T1, α7^Q79G-GlyR^A298G; assay: cell-based

Row | Compound | EC50 (α7^Q79G-GlyR^A298G [1]) [nM] | EC50 (α7^Q79G-GlyR^A298G [2]) [nM]
1 | O=C(NC1C2CCN(CC2)C1Cc1cccnc1)c1ccc(C(F)(F)F)cc1 (mixture of isomers) [compound 0436] | 6 | –
2 | O=C(NC1CN2CCC1CC2)c1ccc(C(F)(F)F)nc1 (stereo not shown) [compound 0296] | – | 450
3 | O=C(Nc1ccccc1)N[C@@H]1CN2CCC1CC2 [compound 0353] | 10 | –
4 | O=C(N[C@@H]1CN2CCC1CC2)c1c[nH]c2ccccc12 [compound 0676] | 2 | –
